This note sets out measurements from patent US9193736B2, “PDE 10a inhibitors for the treatment of type II diabetes” (Janssen Pharmaceutica, NV, priority 2013, dated 2015).

By UniProt entry, the sequences of proteins in these tests, tags left out. Where a name states a change or a piece, a line headed by the entry shows the natural chain unless it says otherwise. Residues count along the entry.
UniProt Q9Y233, 267-1055: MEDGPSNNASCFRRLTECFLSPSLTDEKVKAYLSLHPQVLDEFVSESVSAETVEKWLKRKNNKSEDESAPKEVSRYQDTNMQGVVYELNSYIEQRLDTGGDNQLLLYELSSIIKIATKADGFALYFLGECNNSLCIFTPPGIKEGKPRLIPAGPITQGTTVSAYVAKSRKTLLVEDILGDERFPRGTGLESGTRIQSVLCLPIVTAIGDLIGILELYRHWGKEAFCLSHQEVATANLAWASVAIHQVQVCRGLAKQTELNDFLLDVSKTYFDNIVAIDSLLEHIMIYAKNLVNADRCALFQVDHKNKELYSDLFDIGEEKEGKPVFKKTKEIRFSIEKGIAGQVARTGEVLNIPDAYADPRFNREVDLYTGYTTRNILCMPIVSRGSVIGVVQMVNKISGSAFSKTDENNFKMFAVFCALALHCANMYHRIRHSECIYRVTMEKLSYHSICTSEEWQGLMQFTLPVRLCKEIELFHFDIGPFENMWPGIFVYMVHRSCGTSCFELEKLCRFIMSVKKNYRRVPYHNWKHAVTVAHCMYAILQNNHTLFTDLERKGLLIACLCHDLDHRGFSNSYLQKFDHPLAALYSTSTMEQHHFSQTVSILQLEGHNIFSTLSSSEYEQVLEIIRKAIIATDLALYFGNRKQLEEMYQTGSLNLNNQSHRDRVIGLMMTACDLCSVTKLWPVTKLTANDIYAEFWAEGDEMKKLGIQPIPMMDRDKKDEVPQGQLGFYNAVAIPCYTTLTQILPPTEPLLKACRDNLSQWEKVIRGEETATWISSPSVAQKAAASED
UniProt Q9QYJ6: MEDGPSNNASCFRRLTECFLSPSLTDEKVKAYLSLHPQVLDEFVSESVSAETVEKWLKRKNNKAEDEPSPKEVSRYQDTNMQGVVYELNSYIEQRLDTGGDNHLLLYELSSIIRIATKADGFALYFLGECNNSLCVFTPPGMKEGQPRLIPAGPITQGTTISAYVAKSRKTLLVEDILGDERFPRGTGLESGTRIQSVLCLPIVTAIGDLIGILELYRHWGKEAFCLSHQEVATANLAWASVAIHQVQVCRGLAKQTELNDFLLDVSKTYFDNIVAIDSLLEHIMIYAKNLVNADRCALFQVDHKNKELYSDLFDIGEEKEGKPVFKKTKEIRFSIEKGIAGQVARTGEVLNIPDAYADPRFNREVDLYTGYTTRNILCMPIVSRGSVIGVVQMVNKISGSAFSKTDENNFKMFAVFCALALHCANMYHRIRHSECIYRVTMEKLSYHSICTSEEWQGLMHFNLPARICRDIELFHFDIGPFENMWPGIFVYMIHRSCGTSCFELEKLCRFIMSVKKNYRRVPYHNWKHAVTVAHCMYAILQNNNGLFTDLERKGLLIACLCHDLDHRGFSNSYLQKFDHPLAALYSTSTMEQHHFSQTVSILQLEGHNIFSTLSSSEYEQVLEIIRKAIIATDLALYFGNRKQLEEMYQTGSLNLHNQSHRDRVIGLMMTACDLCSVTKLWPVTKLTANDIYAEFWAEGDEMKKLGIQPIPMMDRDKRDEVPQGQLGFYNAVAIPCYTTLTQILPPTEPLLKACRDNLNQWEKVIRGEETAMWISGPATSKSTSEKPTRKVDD

Counter-ions that a name gives are not always drawn. Where only a bound is given, the exact number is not on record here.

Test [1] deals with Human recombinant PDE10A2 (Homo sapiens (Human), UniProt Q9Y233). Kind of test: In vitro hPDE10a: human recombinant PDE10A2 scintillation proximity assay, IC50. The test is classed as biochemical. As to conditions: human recombinant PDE10A2, SPA, 60 nM cAMP; read-out: hPDE10a2 IC50. The method, then:
In Vitro hPDE10a […] Cells were harvested and the phosphodiesterase protein was purified by metal chelate chromatography on Ni-sepharose 6FF. The affinity of the compounds of Formula (I) for phophodiesterases (PDE) was measured by a scintillation proximity assay (SPA). PDE Yttrium Silicate SPA beads allow PDE activity to be measured by direct binding of the primary phosphate groups of non-cyclic AMP or GMP to the beads via a complex iron chelation mechanism. The amount of bound tritiated product ([^3H]-AMP) is measured by liquid scintillation counting. The compounds were dissolved and diluted in 100% DMSO in polystyrene plates to a concentration of 100-fold the final concentration in the assay. […] After incubation, the reaction was stopped with 20 μL of stop solution, consisting of PDE SPA beads (17.8 mg beads/mL in 18 mM zinc sulphate). […] To measure the low control, no enzyme was added to the reaction mixture. Data were calculated as the percentage of inhibition of total activity measured in the absence of test compound (% control). […] For compounds tested more than once, the data points were aggregated.
A general note: SPA uses beads or plates that emit light when radiolabelled molecules are held near them.

Test [2] addresses Rat recombinant PDE10a (rPDE10a) (Rattus norvegicus (Rat), UniProt Q9QYJ6). Kind of test: In vitro assay PDE10a: rat recombinant PDE10a SPA with 3H-cAMP substrate, IC50. The class given is biochemical. As to conditions: 60 nM cAMP, read-out: rPDE10a2 IC50. The method, then:
In Vitro Assay PDE10a Rat recombinant PDE10a (rPDE10a) was expressed in Sf9 cells using a recombinant rPDE10a baculovirus construct. Cells were harvested after 48 h of infection and the rPDE10a protein was purified by metal chelate chromatography on Ni-sepharose 6FF. Tested compounds were dissolved and diluted in 100% DMSO to a concentration 100 fold of the final concentration in the assay. […] The reaction was incubated for 60 min at rt. After incubation, the reaction was stopped with 20 μL of 17.8 mg/mL PDE SPA beads. […] For blank values the enzyme was omitted from the reaction and replaced by incubation buffer. […] A best fit curve was fitted by a minimum sum of squares method to the plot of % of control value subtracted with blank value versus compound concentration and the half maximal inhibitory concentration (IC50) value was derived from this curve.

With “2-[(E)-2-(6-Chloro-8-morpholin-4-ylimidazo[1,2-b]pyridazin-2-yl)ethenyl]-Nethylsulfonyl)quinoline-4-carboxamide [Cpd 127]”, the IC50 (as a rule, the point on the concentration scale where inhibition reaches its midpoint) in test [1] is < 1 nM; in test [2] it was 16 nM.

Take `O=C(O)c1ccc(-c2c(/C=C/c3ccc4c(n3)CCCC4)nc3c(N4CCOCC4)ccnn23)cn1` [Cpd 107, (E)-5-(8-morpholino-2-(2-(5,6,7,8-tetrahydroquinolin-2-yl)vinyl)imidazo[1,2-b]pyridazin-3-yl)picolinic acid trifluoroacetic acid salt]: the IC50 in test [2] is 16 nM.
